Calls of active or inactive are those of the source. No cut-off for these calls is given here.
Columns and labels:
[1] = biological target: T1, NAD-dependent protein lipoamidase sirtuin-4, mitochondrial (Mus musculus) (UniProt Q8R216); assay: Inhibition of SIRT4 in mouse C2C12 cells assessed as increase in GDH activity incubated for 4 hrs by absorbance based assay; type: cell-based; details: dose 5-25 µM
T1 sequence (whole entry): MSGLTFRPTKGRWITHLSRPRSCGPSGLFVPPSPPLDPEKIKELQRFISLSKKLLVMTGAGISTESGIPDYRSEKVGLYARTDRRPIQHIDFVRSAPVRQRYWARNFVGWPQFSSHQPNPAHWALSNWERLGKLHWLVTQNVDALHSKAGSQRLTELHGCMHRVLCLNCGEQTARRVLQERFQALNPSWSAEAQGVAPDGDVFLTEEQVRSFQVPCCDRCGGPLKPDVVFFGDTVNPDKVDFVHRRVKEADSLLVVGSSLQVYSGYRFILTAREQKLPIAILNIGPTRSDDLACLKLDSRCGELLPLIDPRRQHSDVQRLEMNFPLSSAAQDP

By UniProt entry, the sequences of proteins in these tests, tags left out. Where a name states a change or a piece, a line headed by the entry shows the natural chain unless it says otherwise.
UniProt Q9NXA8: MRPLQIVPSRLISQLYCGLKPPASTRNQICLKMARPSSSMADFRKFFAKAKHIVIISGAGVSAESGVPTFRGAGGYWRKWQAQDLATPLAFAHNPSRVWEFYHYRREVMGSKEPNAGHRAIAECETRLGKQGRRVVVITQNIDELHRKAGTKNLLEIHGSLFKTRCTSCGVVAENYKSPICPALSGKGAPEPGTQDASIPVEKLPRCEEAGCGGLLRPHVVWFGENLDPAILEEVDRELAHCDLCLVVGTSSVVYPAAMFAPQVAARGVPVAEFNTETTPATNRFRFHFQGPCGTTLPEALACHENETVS

[2] = biological target: T1, NAD-dependent protein lipoamidase sirtuin-4, mitochondrial (Mus musculus); assay: Inhibition of SIRT4 in mouse C2C12 cell mitochondria assessed as increase in GDH activity incubated for 4 hrs by absorbance based assay; details: dose 5-25 µM
[3] = biological target: T1, NAD-dependent protein lipoamidase sirtuin-4, mitochondrial (Mus musculus); assay: Inhibition of SIRT4 in mouse C2C12 cells assessed as rescue of PDH activity incubated for 8 days in presence of glutamax by GloMax multi-detection system; type: cell-based; details: time 8.0 day
[4] = biological target: T1, NAD-dependent protein lipoamidase sirtuin-4, mitochondrial (Mus musculus); assay: Inhibition of SIRT4 in mouse C2C12 cell mitochondria assessed as rescue of PDH activity incubated for 8 days in presence of glutamax by GloMax multi-detection system; details: time 8.0 day
[5] = biological target: T1, NAD-dependent protein lipoamidase sirtuin-4, mitochondrial (Mus musculus); assay: Inhibition of SIRT4 in mouse C2C12 cells assessed as increase in GDH activity at 5 to 25 uM incubated for 4 hrs by absorbance based assay; type: cell-based; details: dose 5-25 µM
[6] = biological target: T1, NAD-dependent protein lipoamidase sirtuin-4, mitochondrial (Mus musculus); assay: Inhibition of SIRT4 in mouse C2C12 cell mitochondria assessed as increase in GDH activity at 5 to 25 uM incubated for 4 hrs by absorbance based assay; details: dose 5-25 µM
[7] = biological target: T1, NAD-dependent protein lipoamidase sirtuin-4, mitochondrial (Mus musculus); assay: Inhibition of SIRT4 in mouse C2C12 cells assessed as rescue of PDH activity at 25 uM incubated for 8 days in presence of glutamax by GloMax multi-detection system; type: cell-based; details: time 8.0 day
[8] = biological target: T1, NAD-dependent protein lipoamidase sirtuin-4, mitochondrial (Mus musculus); assay: Inhibition of SIRT4 in mouse C2C12 cell mitochondria assessed as rescue of PDH activity at 25 uM incubated for 8 days in presence of glutamax by GloMax multi-detection system; details: time 8.0 day
[9] = biological target: NAD-dependent protein deacylase sirtuin-5, mitochondrial (Homo sapiens) (UniProt Q9NXA8); assay: Inhibition of N-terminal His-tagged recombinant human Sirt5 (34 to 302 residues) expressed in Escherichia coli CodonPlus(DE3) cells using succinylated FdL-substrate as substrate upto 50 uM incubated for 7 mins by fluorescence based assay

| Structure (SMILES) | inhibition [1] | inhibition [2] | inhibition [3] | inhibition [4] | inhibition [5] | inhibition [6] | inhibition [7] | inhibition [8] | inhibition [9] |
| --- | --- | --- | --- | --- | --- | --- | --- | --- | --- |
| O=C(Nc1ncc(S(=O)(=O)c2ccc([N+](=O)[O-])cc2)s1)C(Sc1nc2cc(Cl)ccc2[nH]1)c1ccccc1 (stereo not drawn) | Dose-Dependent Effect | Dose-Dependent Effect | Dose-Dependent Effect | Dose-Dependent Effect | – | – | – | – | – |
| CCCc1cc(=O)[nH]c(SCC(=O)Nc2ccc(S(=O)(=O)c3ccc([N+](=O)[O-])cc3)cc2)n1 | – | – | – | – | inactive | inactive | inactive | inactive | – |
| O=C(CSc1nc2ccccc2c(=O)[nH]1)Nc1ncc(S(=O)(=O)c2ccc([N+](=O)[O-])cc2)s1 | Dose-Dependent Effect | Dose-Dependent Effect | Dose-Dependent Effect | Dose-Dependent Effect | – | – | – | – | inactive |
